Data as given in patent publication US6177447A (Universiteit van Amsterdam, priority 1996, dated 2001).

Target: lysosomal a-glucosidase (Homo sapiens, UniProt P10253)
Assay: purified lysosomal a-glucosidase activity towards 4MU-a-glucoside
Type: biochemical

`OCC1C(O)C(O)C(O)CN1CCCCCOCC12CC3CC(CC(C3)C1)C2` (stereo not shown) was tested, and the Ki was 870 nM.
